By UniProt entry, the sequences of proteins in these tests, tags left out. Residues count along the entry.
UniProt P21917, whole entry: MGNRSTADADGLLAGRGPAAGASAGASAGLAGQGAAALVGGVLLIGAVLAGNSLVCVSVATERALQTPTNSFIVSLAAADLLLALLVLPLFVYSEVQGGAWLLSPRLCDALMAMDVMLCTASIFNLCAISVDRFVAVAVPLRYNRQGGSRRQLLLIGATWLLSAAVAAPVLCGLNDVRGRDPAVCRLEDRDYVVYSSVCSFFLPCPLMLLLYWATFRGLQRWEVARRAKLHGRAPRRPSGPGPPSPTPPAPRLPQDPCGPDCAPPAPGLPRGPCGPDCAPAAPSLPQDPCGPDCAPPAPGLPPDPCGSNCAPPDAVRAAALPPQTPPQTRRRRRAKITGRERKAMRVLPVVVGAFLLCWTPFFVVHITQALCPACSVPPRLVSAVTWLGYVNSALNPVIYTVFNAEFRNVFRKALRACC
UniProt P14416, whole entry: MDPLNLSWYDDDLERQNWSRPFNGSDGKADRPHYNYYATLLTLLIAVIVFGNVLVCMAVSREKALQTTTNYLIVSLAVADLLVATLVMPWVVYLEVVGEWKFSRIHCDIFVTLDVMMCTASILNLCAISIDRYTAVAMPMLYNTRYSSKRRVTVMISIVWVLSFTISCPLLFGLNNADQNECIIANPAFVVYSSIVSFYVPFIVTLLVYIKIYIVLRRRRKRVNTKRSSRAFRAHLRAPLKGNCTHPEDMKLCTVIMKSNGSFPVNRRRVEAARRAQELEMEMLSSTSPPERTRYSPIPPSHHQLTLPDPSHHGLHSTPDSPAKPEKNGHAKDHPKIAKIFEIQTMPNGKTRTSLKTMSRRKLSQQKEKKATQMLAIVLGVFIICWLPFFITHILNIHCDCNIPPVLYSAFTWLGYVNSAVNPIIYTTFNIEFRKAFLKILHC
UniProt P34969, whole entry: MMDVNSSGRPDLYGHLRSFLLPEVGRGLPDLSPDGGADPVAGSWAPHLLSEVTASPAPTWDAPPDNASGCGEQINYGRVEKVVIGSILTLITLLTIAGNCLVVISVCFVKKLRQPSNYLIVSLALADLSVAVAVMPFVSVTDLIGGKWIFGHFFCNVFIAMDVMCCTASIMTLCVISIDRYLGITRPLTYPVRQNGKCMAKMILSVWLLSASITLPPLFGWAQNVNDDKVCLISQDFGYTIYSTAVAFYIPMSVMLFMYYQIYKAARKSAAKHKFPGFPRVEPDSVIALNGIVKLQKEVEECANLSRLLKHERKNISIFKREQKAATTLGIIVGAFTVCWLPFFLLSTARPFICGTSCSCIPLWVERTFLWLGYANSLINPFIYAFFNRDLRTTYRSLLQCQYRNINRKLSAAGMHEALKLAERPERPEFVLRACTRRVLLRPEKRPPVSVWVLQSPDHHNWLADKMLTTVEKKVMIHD
UniProt P28223, whole entry: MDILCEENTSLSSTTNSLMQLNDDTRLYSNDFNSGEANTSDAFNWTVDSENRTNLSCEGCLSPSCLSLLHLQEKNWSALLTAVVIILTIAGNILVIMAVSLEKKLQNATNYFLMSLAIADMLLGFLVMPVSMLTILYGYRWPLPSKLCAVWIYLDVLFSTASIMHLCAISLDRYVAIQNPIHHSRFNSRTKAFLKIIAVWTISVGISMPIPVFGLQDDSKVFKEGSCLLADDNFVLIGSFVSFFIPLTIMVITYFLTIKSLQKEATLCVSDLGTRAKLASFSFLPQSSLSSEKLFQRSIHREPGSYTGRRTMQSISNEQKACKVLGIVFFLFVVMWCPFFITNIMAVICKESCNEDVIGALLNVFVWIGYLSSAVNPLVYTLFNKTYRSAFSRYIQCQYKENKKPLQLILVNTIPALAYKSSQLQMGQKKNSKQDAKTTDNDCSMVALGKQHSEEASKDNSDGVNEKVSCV
UniProt P28335, 33-458 limits assumed: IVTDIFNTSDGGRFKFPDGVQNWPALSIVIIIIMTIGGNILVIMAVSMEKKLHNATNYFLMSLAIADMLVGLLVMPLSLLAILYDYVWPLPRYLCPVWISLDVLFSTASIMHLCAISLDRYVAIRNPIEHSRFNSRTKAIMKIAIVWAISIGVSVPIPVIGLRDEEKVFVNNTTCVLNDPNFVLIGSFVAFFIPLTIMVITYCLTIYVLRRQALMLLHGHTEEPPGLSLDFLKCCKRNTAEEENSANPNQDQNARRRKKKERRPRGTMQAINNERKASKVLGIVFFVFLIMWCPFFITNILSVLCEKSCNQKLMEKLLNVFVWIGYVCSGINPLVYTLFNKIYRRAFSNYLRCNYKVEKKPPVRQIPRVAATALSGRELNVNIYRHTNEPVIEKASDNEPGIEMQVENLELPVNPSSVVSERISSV
UniProt P35462, whole entry: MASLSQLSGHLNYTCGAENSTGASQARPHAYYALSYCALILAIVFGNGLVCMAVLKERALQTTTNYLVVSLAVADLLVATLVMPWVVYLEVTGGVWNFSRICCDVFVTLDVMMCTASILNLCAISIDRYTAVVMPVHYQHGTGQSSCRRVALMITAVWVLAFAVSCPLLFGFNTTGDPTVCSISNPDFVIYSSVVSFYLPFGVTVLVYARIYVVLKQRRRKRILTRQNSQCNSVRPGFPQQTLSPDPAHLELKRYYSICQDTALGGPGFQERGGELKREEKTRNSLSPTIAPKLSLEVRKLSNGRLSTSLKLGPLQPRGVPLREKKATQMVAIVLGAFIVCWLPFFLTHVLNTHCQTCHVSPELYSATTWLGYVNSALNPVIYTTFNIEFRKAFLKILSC
UniProt P31645, whole entry: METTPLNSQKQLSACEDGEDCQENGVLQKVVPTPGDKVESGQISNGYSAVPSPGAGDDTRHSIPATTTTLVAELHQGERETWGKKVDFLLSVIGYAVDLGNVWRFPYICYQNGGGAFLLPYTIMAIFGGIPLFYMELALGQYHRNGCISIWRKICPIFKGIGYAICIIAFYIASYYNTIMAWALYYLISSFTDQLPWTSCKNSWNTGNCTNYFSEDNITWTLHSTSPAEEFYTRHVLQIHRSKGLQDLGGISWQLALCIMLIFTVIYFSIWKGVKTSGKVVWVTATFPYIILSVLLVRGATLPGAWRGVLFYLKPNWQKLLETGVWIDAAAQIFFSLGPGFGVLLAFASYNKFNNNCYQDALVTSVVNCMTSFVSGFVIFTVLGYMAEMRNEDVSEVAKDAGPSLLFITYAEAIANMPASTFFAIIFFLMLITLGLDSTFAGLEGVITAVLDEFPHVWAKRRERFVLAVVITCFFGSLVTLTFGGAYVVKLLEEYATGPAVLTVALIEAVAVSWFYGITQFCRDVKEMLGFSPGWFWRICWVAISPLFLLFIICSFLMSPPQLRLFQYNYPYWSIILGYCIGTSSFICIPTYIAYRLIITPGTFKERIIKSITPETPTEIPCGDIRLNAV
UniProt P08908, whole entry: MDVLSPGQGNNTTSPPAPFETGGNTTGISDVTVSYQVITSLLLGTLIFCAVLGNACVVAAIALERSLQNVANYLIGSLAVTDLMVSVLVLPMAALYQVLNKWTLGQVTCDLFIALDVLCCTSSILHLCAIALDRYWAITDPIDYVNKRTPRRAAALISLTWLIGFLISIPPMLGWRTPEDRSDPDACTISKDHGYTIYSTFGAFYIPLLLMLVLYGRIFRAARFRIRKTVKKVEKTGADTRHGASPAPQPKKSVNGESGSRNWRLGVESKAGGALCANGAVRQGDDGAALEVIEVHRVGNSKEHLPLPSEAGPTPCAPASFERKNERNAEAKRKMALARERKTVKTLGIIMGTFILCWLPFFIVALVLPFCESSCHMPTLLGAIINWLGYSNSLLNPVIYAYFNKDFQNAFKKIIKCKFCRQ

According to US20180193330A1, “ALKYLATED TETRAHYDROISOQUINOLINES FOR BINDING TO CENTRAL NERVOUS SYSTEM RECEPTORS” (Florida A&M University, priority 2017, published 2018):

Legend:
D4 receptor = D4 receptor (Homo sapiens, UniProt P21917); test: Receptor binding affinity at dopamine D4 (NIMH-PDSP radioligand binding); conditions: Table 6, FIG. 23 compounds
D2 receptor = D2 receptor (Homo sapiens, UniProt P14416); test: Receptor binding affinity at dopamine D2 (NIMH-PDSP radioligand binding); conditions: Table 6, FIG. 23 compounds
5-HT7 receptor = 5-HT7 receptor (Homo sapiens, UniProt P34969); test: Receptor binding affinity at 5-HT7 (NIMH-PDSP radioligand binding); conditions: read-out: Ki 5-HT7; Table 6, FIG. 23 compounds
5-HT2A receptor = 5-HT2A receptor (Homo sapiens, UniProt P28223); test: Receptor binding affinity at 5-HT2A (NIMH-PDSP radioligand binding); conditions: Table 6, FIG. 23 compounds
5-HT2C receptor = 5-HT2C receptor (Homo sapiens, UniProt P28335); test: Receptor binding affinity at 5-HT2C (NIMH-PDSP radioligand binding); conditions: Table 6, FIG. 23 compounds
D3 receptor = D3 receptor (Homo sapiens, UniProt P35462); test: Receptor binding affinity at dopamine D3 (NIMH-PDSP radioligand binding); conditions: Table 6, FIG. 23 compounds
SERT = SERT (Homo sapiens, UniProt P31645); test: Binding affinity at SERT; conditions: Table 6, FIG. 23 compounds
5-HT1A receptor = 5-HT1A receptor (Homo sapiens, UniProt P08908); test: Receptor binding affinity at 5-HT1A (NIMH-PDSP radioligand binding); conditions: Table 6, FIG. 23 compounds

Row | SMILES | pKi ± SEM D4 (D4 receptor) | Ki D2 (D2 receptor) | Ki (5-HT7 receptor) [µM] | pKi ± SEM 5-HT2A (5-HT2A receptor) | pKi ± SEM 5-HT2C (5-HT2C receptor) | Ki D3 (D3 receptor) | Ki SERT (SERT) | Ki D4 (D4 receptor) | pKi ± SEM D3 (D3 receptor) | pKi ± SEM 5-HT1A (5-HT1A receptor)
1 | CC1(CCN2CCc3ccccc3C2)Cc2cc(Cl)ccc2C1=O (single isomer, unassigned) [9a (−)] | (6.34 ± 0.07) | MTA (MTA = Missed 50% of threshold inhibition) | 0.0665 | (6.14 ± 0.06) | (5.5 ± 0.08) | MTA (MTA = Missed 50% of threshold inhibition) | MTA (MTA = Missed 50% of threshold inhibition) |  |  | 
2 | CC1(CCN2CCc3ccccc3C2)Cc2cc(Cl)ccc2C1=O (single isomer, unassigned) [9b (+)] |  | MTA (MTA = Missed 50% of threshold inhibition) |  |  |  |  |  | MTA (MTA = Missed 50% of threshold inhibition) | (6 ± 0.05) | (6.43 ± 0.06)
